{"sequences": {"note": "Chains of the proteins cited; added tags and fusions are not shown. Residues count along the entry.", "UniProt F8V479, 24-463": "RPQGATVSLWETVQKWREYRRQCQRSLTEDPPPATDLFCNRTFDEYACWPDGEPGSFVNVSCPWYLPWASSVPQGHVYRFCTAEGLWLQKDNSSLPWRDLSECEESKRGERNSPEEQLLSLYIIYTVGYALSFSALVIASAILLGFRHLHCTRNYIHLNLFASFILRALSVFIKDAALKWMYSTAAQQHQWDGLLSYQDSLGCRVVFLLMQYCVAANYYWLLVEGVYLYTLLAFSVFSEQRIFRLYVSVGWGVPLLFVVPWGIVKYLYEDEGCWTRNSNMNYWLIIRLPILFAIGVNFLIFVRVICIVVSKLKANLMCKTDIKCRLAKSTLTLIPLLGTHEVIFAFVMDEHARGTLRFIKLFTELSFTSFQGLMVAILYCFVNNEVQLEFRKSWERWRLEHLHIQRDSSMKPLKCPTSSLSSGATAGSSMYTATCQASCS"}, "source": "patent US20260042854A1", "about": "“ANTI-GLP-1R ANTIBODIES AND USES THEREOF” (SCIWIND BIOSCIENCES USA CO., LTD, priority 2022, published 2026)", "molecular_target": "T1, monkey GLP-1R (GenBank: JN033215.1) (Macaca fascicularis, UniProt F8V479)", "T1 construct": "expressed in transfected cells; host or cells: HEK293 (monkey GLP-1R-CRE-Luciferase-HEK293)", "experiment": "monkey GLP-1R-CRE-Luciferase-HEK293 reporter gene assay (antagonism of GLP-1)", "assay_type": "cell-based", "conditions": "read-out: IC50, antagonism of activation of monkey GLP-1R by GLP-1; 2.5 ng/mL GLP-1, luciferase reporter, overnight", "procedure": "100 μL of Bright-Glo reagent (Promega Corporation) was added, and the plate was tapped gently to facilitate the mixing of the solution. Chemiluminescence value was read with microplate reader after three minutes. […] The data were analyzed by four-parameter curve fitting with GraphPad Prism 9, and IC50 was calculated.", "data": [{"substance": "exendin 9-39 [Avexitide, reference compound]", "values": [{"measurement": "IC50", "value": 2120, "unit": "nM"}]}]}
